Target: Tyrosyl-DNA phosphodiesterase 1 (Homo sapiens, UniProt Q9NUW8)
Details: pH 7.5

Protein sequences, listed by entry. Tags and fused reporters are not part of them.
UniProt Q9NUW8, whole entry: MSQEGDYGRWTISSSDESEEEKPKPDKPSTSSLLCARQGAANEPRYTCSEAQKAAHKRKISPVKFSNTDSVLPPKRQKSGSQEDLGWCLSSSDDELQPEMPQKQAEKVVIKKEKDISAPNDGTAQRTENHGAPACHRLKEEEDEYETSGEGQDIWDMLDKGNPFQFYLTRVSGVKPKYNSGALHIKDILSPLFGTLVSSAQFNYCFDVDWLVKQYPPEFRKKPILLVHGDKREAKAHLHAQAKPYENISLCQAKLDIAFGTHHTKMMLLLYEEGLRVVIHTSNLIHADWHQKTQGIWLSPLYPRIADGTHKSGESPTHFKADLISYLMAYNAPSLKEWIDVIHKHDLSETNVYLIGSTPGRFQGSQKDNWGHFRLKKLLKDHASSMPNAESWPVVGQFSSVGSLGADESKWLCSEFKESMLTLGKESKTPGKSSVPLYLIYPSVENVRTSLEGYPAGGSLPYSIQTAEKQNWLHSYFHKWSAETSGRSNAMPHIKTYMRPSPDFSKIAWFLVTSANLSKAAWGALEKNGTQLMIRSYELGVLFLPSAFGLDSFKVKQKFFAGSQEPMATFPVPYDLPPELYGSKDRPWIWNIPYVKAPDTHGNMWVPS

IC50	SMILES
45 µM	O=C1c2ccccc2-c2c1c1ccccc1c(=O)n2CCCCCCO
18 µM	O=C1c2ccccc2-c2c1c1ccccc1c(=O)n2CCCCCCCO
